In the experiment the test system is melanophores.

Each structure is given as a SMILES string.

Consider `COc1ccc(CCN(C)CCCC(C#N)(c2ccc(OC)c(OC)c2)C(C)C)cc1OC` (stereo not shown) [Verapamil], for which the melanophore response result is “does not alter melanophores”.

Source of the values: patent US6913877B1 (priority 2000, dated 2005).
